Assays:
[1] = Solubility (use in zebrafish experiment); details: precluded use in zebrafish experiment
Text: To visualize effects of leukadherin treatment on leukocyte accumulation in live animals, we used transgenic Tg(mpx::eGFP) zebrafish that express GFP under a myeloid-specific peroxidase gene (mpx) promoter to specifically fluorescently tag neutrophils for live imaging of leukocyte recruitment. Tailfin transection in zebrafish larvae at 3 days postfertilization (dpf) lead to a rapid and robust recruitment of neutrophils to the site of tissue injury (FIG. 4A-C). […] Finally, to determine if the in vivo effects of leukadherin treatment were reversible, we administered LA1 and LA2 to uninjured zebrafish for 4-8 h, rinsed the zebrafish, induced tailfin injury and quantitated neutrophil accumulation 4 h post-wash.

Sequences of proteins named here, by UniProt entry; tags and fusion partners are left off. Residues count along the entry.
UniProt P20701, 26-1170 limits assumed: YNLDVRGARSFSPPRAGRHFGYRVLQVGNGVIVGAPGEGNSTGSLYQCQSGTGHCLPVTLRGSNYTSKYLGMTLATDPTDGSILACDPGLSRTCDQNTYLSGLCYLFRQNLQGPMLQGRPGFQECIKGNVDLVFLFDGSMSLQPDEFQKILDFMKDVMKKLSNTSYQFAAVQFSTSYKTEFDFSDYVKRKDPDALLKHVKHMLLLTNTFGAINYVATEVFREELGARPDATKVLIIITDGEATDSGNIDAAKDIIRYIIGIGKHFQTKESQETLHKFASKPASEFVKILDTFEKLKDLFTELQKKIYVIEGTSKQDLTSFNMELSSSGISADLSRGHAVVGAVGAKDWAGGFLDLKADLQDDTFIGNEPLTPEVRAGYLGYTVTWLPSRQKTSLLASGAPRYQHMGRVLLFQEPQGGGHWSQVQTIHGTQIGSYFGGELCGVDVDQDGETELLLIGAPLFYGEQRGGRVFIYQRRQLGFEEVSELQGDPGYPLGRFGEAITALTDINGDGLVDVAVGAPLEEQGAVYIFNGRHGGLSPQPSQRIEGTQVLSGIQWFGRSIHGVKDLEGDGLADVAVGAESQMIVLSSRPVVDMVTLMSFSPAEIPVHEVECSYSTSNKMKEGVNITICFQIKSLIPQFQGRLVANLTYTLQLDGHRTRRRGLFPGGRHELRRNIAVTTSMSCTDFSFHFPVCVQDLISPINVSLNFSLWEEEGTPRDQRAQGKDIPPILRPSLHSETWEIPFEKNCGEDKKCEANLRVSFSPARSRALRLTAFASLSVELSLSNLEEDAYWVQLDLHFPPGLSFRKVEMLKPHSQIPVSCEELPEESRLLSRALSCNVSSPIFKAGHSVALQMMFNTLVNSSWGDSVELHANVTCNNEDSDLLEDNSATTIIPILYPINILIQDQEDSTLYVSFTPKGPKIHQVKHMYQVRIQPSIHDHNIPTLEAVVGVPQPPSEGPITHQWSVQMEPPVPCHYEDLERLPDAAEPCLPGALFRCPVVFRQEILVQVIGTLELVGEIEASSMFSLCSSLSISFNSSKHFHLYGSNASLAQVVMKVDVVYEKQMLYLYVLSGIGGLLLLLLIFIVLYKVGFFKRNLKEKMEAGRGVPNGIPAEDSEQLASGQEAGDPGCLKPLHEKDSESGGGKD
UniProt P05107, 23-769 partner limits assumed: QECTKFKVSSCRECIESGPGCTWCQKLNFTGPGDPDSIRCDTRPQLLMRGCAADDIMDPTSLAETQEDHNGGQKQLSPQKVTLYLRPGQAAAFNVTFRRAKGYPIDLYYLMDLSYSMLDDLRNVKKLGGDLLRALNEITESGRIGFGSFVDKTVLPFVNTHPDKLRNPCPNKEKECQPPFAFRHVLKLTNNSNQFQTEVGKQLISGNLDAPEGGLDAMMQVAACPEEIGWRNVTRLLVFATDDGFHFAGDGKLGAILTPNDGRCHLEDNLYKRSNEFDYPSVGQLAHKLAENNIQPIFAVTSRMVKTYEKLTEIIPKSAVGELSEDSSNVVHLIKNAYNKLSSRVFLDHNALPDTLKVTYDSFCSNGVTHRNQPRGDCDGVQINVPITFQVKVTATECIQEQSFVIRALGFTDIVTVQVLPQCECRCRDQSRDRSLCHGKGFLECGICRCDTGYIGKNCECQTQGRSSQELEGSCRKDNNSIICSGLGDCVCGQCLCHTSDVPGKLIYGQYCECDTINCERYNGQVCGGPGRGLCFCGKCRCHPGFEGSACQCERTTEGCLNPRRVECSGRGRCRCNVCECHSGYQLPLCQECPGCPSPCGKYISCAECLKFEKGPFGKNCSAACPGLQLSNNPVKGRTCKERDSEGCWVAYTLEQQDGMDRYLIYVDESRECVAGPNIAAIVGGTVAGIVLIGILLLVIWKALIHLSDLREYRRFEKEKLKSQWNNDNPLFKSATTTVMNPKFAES

integrin CD11a/CD18 = integrin CD11a/CD18 (Homo sapiens, UniProt P20701); experiment: Adhesion of K562 CD11a/CD18 cells to immobilized ICAM-1 (selectivity); details: cell adhesion, K562 CD11a/CD18 on ICAM-1 vs K562 CD11b/CD18
Description: Cell adhesion assays with immobilized ligands were performed as previously described. Assays with all different K562 cell lines (K562, K562 CD11b/CD18 and K562 E320A) were performed in an identical fashion. Briefly, 384-well Highbind microtiter plates were coated with a 30 μL solution of ligand in Phosphate Buffered Saline, pH 7.4 containing 1 mM each of Ca^2+ and Mg^2+ ions (PBS^++) overnight at 4° C. Ligand Fg was coated at a concentration of […] and iC3b at […]. Heterodimer specific mAb IB4 (ascites) was coated at a 1:100 dilution. Subsequently, the non-specific sites in the wells were blocked by incubation with 1% non-fat milk in Tris Buffered Saline (TBS), pH 7.4, at room temperature for 1 h, except for the neutrophil assay, where the wells were blocked with TBS containing 1% gelatin. Next, the wells were washed three times with TBS. […] Cells remaining adherent were fixed using formaldehyde and were quantitated using imaging microscopy, as previously described. […]
Next, we determined the selectivity of compounds for integrin CD11b/CD18 over highly homologous integrin CD11a/CD18 (also known as LFA-1). […] Next, we measured the ability of LA3 to increase cell adhesion to immobilized ICAM-1, a physiologic ligand of integrin CD11a/CD18.

[2] = system: Tg(mpx::eGFP) zebrafish larvae; experiment: Zebrafish tailfin injury assay; details: 4 h post injury; vehicle 34.6±4.5
Description: Transgenic Tg(mpx::eGFP) were maintained according to standard protocols. Tailfin injury in three days post fertilization (dpf) larvae was performed as described. Larvae were anesthetized by immersion in E3 with […] tricane, and tail was completely transected with a sterile microdissection scalpel in accordance with the approved protocols and were recovered for the indicated time points. Zebrafish larvae (3 dpf) were treated with compounds as described (Ref). Briefly, small molecule compounds were administered by immersing the larvae in a solution of the compounds in E3. The final concentration of DMSO was kept at <1%. For the assessment of the inflammatory response, injured larvae were analyzed at 4 h post-injury. For the post-wash assay, uninjured larvae incubated with the compounds in E3 for 4-8 h, washed into E3 and injured. Larvae were analyzed using a Leica DMI6000B microscope and an Hamamatsu Orca-3CCD camera using Volocity. Excitation was performed using the laser at 488 nm and the images were analyzed using Volocity. The number of fluorescent neutrophils at the site of inflammation were counted by eye in a blinded fashion. […]

B6 male mice = experiment: Renal I/R injury in mice; details: given 30 min prior to I/R injury, 24 h post-ischemia, vs DMSO; not shown
Description: Leukadherins reduce renal I/R injury. To evaluate use of leukadherins in the I/R injury induced changes in the kidney function of WT mice, we performed another experiment. B6 male mice (8-12 weeks of age) were anesthetized and kept on a heating pad to keep them at a constant 37° C. temperature. Next, an abdominal incision was made and the renal pedicles were occluded bilaterally with a nontraumatic vascular clamp for 30 minutes, the clamp then removed and the surgical incision was closed. Sham surgery was performed with an identical procedure but without application of the clamps. Renal I/R injury was assessed at 24 h post-ischemia by measuring the serum creatinine levels. Mouse sera from the tail incision was used for the analyses of sCr (and BUN levels (not shown)) using manual kits (Stanbio Laboratory).

| solubility [1] | selectivity for integrin CD11b/CD18 over CD11a/CD18 (integrin CD11a/CD18) | Compound | neutrophil accumulation in the zebrafish tailfin (number of neutrophils) [2] | serum creatinine (sCr) levels (B6 male mice) |
| --- | --- | --- | --- | --- |
| lower solubility | two-fold higher selectivity | CCOC(=O)CN1C(=O)SC(=Cc2ccc(-c3ccc(Cl)cc3Cl)o2)C1=O | – | – |
| – | – | O=C(O)c1ccc(-c2ccc(C=C3SC(=O)N(c4ccccc4)C3=O)o2)cc1 | 13.3±2.1 | significant reduction |

Source: patent publication US9023876B2, “Compounds and methods for regulating integrins” (Adhaere Pharmaceuticals, Inc., priority 2010, dated 2015)
